Our source for the Kd values is article PMC4778445, “Measurement of free glucocorticoids: quantifying corticosteroid-binding globulin binding affinity and its variation within and among mammalian species” (Conservation Physiology, 2015).

As a reminder, the Kd is the free concentration of one partner at which half of the binding sites on the other are occupied at equilibrium, for simple one-to-one binding. A higher Kd goes with lower affinity.

The structures appear in SMILES notation.

Common to all, as to test: radioligand saturation binding, dextran-coated charcoal separation
Assay [1] deals with T1, corticosteroid-binding globulin (CBG), snowshoe hare.
T1 construct: gene SERPINA6; native protein in charcoal-stripped plasma, not purified
Also on record: species or system Lepus americanus. The settings on record: labelled compound ([1,2,6,7-3H]cortisol); 37 °C, ≥4 h, PBS with gelatin; separation at 0 °C; plasma 1/25; non-specific binding subtracted; error SEM.

Assay [2] deals with T2, corticosteroid-binding globulin (CBG), Richardson's ground squirrel.
T2 construct: gene SERPINA6; native protein in charcoal-stripped individual plasma, not purified
Also noted: species or system Urocitellus richardsonii. The settings on record: labelled compound ([1,2,6,7-3H]cortisol); 37 °C, ≥4 h, PBS with gelatin; separation at 0 °C; plasma 1/50; mean of 16 individual males; error SEM.

Assay [3] concerns the target T3, corticosteroid-binding globulin (CBG), red squirrel.
T3 construct: gene SERPINA6; native protein in charcoal-stripped plasma, not purified
Also on record: species or system Tamiasciurus hudsonicus. The settings on record: labelled compound ([1,2,6,7-3H]cortisol); 37 °C, ≥4 h, PBS with gelatin; separation at 0 °C; pooled plasma 1/80-1/10; mean of six runs; error SEM.

Assay [4] deals with T4, corticosteroid-binding globulin (CBG), spotted hyena.
T4 construct: gene SERPINA6; native protein in charcoal-stripped serum (Toronto Zoo), not purified
Also noted: species or system Crocuta crocuta. The settings on record: labelled compound ([1,2,6,7-3H]cortisol); 37 °C, ≥4 h, PBS with gelatin; separation at 0 °C; serum 1/50; mean of two runs; error SEM.

Assay [5] addresses T5, corticosteroid-binding globulin (CBG), Columbian ground squirrel.
T5 construct: gene SERPINA6; native protein in charcoal-stripped plasma, not purified
Also noted: species or system Urocitellus columbianus. Conditions: labelled compound ([1,2,6,7-3H]cortisol); 37 °C, ≥4 h, PBS with gelatin; separation at 0 °C; plasma 1/50; mean of five runs; error SEM.

Assay [6] has as its target T6, corticosteroid-binding globulin (CBG), lynx.
T6 construct: gene SERPINA6; native protein in charcoal-stripped serum (Toronto Zoo), not purified
Also noted: species or system Lynx canadensis. Conditions: labelled compound ([1,2,6,7-3H]cortisol); 37 °C, ≥4 h, PBS with gelatin; separation at 0 °C; serum 1/50; error SEM.

With `C[C@]12CCC(=O)C=C1CC[C@@H]1[C@@H]2[C@@H](O)C[C@@]2(C)[C@H]1CC[C@]2(O)C(=O)CO` [F, cortisol], the dissociation constant Kd is 0.6 ± 0.18 nM in assay [1]; 4.3 ± 0.36 nM in assay [2]; 61.1 ± 2.9 nM in assay [3]; 4 ± 0.4 nM in assay [4]; 5.1 ± 1 nM in assay [5]; 6.8 ± 0.63 nM in assay [6].
